Patent US11730817B2, “Pro-cyclic dinucleotides and pro-cyclic dinucleotide conjugates for cytokine induction” (INVIVOGEN, priority 2017, dated 2023)

Protein sequences, listed by entry. Tags and fused reporters are not part of them.
UniProt Q86WV6, whole entry R71H/G230A/H232R/R293Q: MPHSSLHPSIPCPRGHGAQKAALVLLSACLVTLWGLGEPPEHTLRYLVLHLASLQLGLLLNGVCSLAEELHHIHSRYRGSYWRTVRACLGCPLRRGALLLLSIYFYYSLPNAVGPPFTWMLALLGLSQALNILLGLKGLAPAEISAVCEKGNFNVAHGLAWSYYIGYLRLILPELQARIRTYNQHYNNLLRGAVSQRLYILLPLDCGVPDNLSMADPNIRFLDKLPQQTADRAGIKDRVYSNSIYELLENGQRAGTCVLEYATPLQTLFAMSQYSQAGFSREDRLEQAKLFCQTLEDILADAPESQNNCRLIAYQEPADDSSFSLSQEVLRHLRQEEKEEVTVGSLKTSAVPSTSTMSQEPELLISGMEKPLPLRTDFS

These molecules were tested on Type I IFNs (assay: Whole-blood assay, type I IFN induction (HEK-Blue IFN-α/β-KO-STING readout)). Settings: read-out: EC50 (μM) IFN in WBA.
Assay type: cell-based, human

| Compound | EC50 [µM] |
| --- | --- |
| CCCCCCCCCCCCCCCC(=O)N[C@H](C(=O)N[C@@H](C)C(=O)Nc1ccc(CSP2(=O)OC[C@H]3O[C@@H](n4cnc5c(N)ncnc54)[C@H](F)[C@@H]3OP(=O)(O)OC[C@H]3O[C@@H](n4cnc5c(O)ncnc54)[C@H](F)[C@@H]3O2)cc1)C(C)C (stereo partly shown) [CL849] | 0.12 |

Each molecule was assayed against STING (Homo sapiens, UniProt Q86WV6, G230A/H232R/R293Q/R71H) (assay: cell-based). Settings: not given.

| Compound | EC50 [nM] |
| --- | --- |
| CCCCCCCC(=O)N[C@H](C(=O)N[C@@H](C)C(=O)Nc1ccc(CSP2(=O)OC[C@H]3O[C@@H](n4cnc5c(N)ncnc54)[C@H](F)[C@@H]3OP(=O)(O)OC[C@H]3O[C@@H](n4cnc5c(O)ncnc54)C[C@@H]3O2)cc1)C(C)C (stereo partly shown) [CL821] | 230 |
| CCCCCCCCCCCCCCCC(=O)N[C@H](C(=O)N[C@@H](C)C(=O)Nc1ccc(CSP2(=O)OC[C@H]3O[C@@H](n4cnc5c(N)ncnc54)[C@H](F)[C@@H]3OP(=O)(O)OC[C@H]3O[C@@H](n4cnc5c(O)ncnc54)[C@H](F)[C@@H]3O2)cc1)C(C)C (stereo partly shown) [CL849] | 120 |
| CCCCCCCCCCCCCCCC(=O)N[C@H](C(=O)N[C@@H](CCCNC(N)=O)C(=O)Nc1ccc(CSP2(=O)OC[C@H]3O[C@@H](n4cnc5c(N)ncnc54)[C@H](F)[C@@H]3OP(=O)(S)OC[C@H]3O[C@@H](n4cnc5c(O)ncnc54)[C@H](F)[C@@H]3O2)cc1)C(C)C (stereo partly shown) [CL853] | 20 |
| CC(C)[C@H](NC(=O)[C@@H](CN)N1C(=O)C=CC1=O)C(=O)N[C@@H](C)C(=O)Nc1ccc(CSP2(=O)OC[C@H]3O[C@@H](n4cnc5c(N)ncnc54)[C@H](F)[C@@H]3OP(=O)(S)OC[C@H]3O[C@@H](n4cnc5c(O)ncnc54)[C@H](F)[C@@H]3O2)cc1 (stereo partly shown) [CL874] | 6810 |
| CCCCCCCCCCCCCCCC(=O)N[C@H](C(=O)N[C@@H](C)C(=O)Nc1ccc(CSP2(=O)OC[C@H]3O[C@@H](n4cnc5c(N)ncnc54)[C@H](F)[C@@H]3OP(=O)(S)OC[C@H]3O[C@@H](n4cnc5c(O)ncnc54)[C@H](F)[C@@H]3O2)cc1)C(C)C (stereo partly shown) [CL863] | 40 |
| CCCCCCCC(=O)N[C@H](C(=O)N[C@@H](C)C(=O)Nc1ccc(CSP2(=O)OC[C@H]3O[C@@H](n4cnc5c(N)ncnc54)[C@H](F)[C@@H]3OP(=O)(O)OC[C@H]3O[C@@H](n4cnc5c(O)ncnc54)[C@H](F)[C@@H]3O2)cc1)C(C)C (stereo partly shown) [CL841] | 190 |
| CCCCCCCCCCCCCC(=O)OC(CCCCCCCCCCC)CC(=O)N[C@H](C(=O)N[C@@H](C)C(=O)Nc1ccc(CSP2(=O)OC[C@H]3O[C@@H](n4cnc5c(N)ncnc54)[C@H](F)[C@@H]3OP(=O)(O)OC[C@H]3O[C@@H](n4cnc5c(O)ncnc54)C[C@@H]3O2)cc1)C(C)C (stereo partly shown) [CL838] | 90 |
| CCCCCCCCCCCCCC(=O)OC(CCCCCCCCCCC)CC(=O)N[C@H](C(=O)N[C@@H](CCCNC(N)=O)C(=O)Nc1ccc(CSP2(=O)OC[C@H]3O[C@@H](n4cnc5c(N)ncnc54)[C@H](F)[C@@H]3OP(=O)(S)OC[C@H]3O[C@@H](n4cnc5c(O)ncnc54)[C@H](F)[C@@H]3O2)cc1)C(C)C (stereo partly shown) [CL861] | 270 |
| CCCCCCCCCCCCCCCC(=O)N[C@H](C(=O)N[C@@H](CCCNC(N)=O)C(=O)Nc1ccc(CSP2(=O)OC[C@H]3O[C@@H](n4cnc5c(N)ncnc54)[C@H](F)[C@@H]3OP(=O)(O)OC[C@H]3O[C@@H](n4cnc5c(O)ncnc54)C[C@@H]3O2)cc1)C(C)C (stereo partly shown) [CL848] | 10 |
| CCCCCCCC(=O)N[C@H](C(=O)N[C@@H](C)C(=O)Nc1ccc(CSP2(=O)OC[C@H]3O[C@@H](n4cnc5c(O)ncnc54)[C@H](F)[C@@H]3OP(=O)(SCc3ccc(NC(=O)[C@H](C)NC(=O)[C@@H](NC(=O)CCCCCCC)C(C)C)cc3)OC[C@H]3O[C@@H](n4cnc5c(N)ncnc54)[C@H](F)[C@@H]3O2)cc1)C(C)C (stereo partly shown) [CL842] | 6 |
| CCCCCCCCCCCCCC(=O)OC(CCCCCCCCCCC)CC(=O)N[C@H](C(=O)N[C@@H](CCCNC(N)=O)C(=O)Nc1ccc(CSP2(=O)OC[C@H]3O[C@@H](n4cnc5c(N)ncnc54)[C@H](F)[C@@H]3OP(=O)(O)OC[C@H]3O[C@@H](n4cnc5c(O)ncnc54)[C@H](F)[C@@H]3O2)cc1)C(C)C (stereo partly shown) [CL860] | 440 |
| CCCCCCCC(=O)N[C@H](C(=O)N[C@@H](C)C(=O)Nc1ccc(CSP2(=O)OC[C@H]3O[C@@H](n4cnc5c(N)ncnc54)[C@H](F)[C@@H]3OP(=O)(S)OC[C@H]3O[C@@H](n4cnc5c(O)ncnc54)[C@H](F)[C@@H]3O2)cc1)C(C)C (stereo partly shown) [CL840] | 5 |
